In ChEMBL document CHEMBL3739411, “Cytotoxic Illudane Sesquiterpenes from the Fungus Granulobasidium vellereum (Ellis and Cragin) Jülich” (J Nat Prod, 2015) one finds CC50 data, which are given here for 1 molecule.

One experiment relates to MT4. Kind of experiment: Cytotoxicity against human MT4 cells assessed as viable cells after 6 days by XTT assay. Type of experiment: functional. The method in brief: (§1)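 Cells seeded at 2 × 10⁴ cells/well in 96-well plates; test substances added next day in duplicate. CC50 is the concentration giving 50% viability relative to untreated control cells. Positive control included.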

The next experiment relates to Huh-7. Kind of experiment: Cytotoxicity against human HuH7 cells assessed as viable cells after 6 days by XTT assay. The format is functional. The method in brief:
as §1

As for `CC1=C2C(=CC(C)(C)[C@H]2O)[C@H](O)[C@@](C)(O)C12CC2`, the figures for the CC50 in the experiment with MT4 and in the experiment with Huh-7 were 45 µM and 160 µM, respectively.
